This passage reports binding signal over background (times the background) and fold binding signal over TB14.3A results from publication PMC12626770.

Chains of the proteins cited; added tags and fusions are not shown. Residues count along the entry.
UniProt P02786, 101-760: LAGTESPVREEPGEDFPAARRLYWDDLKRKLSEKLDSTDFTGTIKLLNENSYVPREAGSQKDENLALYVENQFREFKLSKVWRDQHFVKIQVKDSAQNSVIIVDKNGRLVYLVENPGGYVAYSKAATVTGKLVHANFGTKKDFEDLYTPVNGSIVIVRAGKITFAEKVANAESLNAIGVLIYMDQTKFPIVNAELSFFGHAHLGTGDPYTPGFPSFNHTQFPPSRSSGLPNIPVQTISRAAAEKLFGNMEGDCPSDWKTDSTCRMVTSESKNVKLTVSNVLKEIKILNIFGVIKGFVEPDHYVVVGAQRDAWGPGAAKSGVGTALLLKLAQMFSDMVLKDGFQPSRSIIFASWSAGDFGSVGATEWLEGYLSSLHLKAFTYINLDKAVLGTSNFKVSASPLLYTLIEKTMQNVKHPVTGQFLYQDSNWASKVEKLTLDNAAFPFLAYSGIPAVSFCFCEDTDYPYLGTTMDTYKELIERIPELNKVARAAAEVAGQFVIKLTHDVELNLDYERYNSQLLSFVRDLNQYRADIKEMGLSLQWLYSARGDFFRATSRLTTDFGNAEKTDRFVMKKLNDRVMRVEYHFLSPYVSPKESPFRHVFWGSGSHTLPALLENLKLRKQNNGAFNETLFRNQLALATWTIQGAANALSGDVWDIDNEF

“And” between values parts separate entries of the source, which are not always exact repeats. Identical values can stand only once.

Assay [1] has as its target E16K, E16K/N45Y, and E16K/S47N. Briefly: flow cytometry on cells; yeast surface display; binder variant on EBY100 yeast, 100 nM biotinylated TfR in PBSF pH 7.4 on ice, detected with SAPE; expression by anti-c-Myc FITC; 50,000 singlets.
Assay [2] addresses TB14.3A E13V/T78I (S4.7), yeast surface displayed. Described as above.

In the case of “Human transferrin receptor 1 (TfR), avi-tagged, biotinylated (from UniProt P02786 101-760)”, the binding signal over background (times the background) in assay [1] was 7 and 11. The same substance showed a fold binding signal over TB14.3A in assay [2] of 10 fold.
